Test results from patent publication US12168802B2, “Methods of diagnosing and treating CD55 deficiency, hyperactivation of complement, angiopathic thrombosis and protein losing enteropathy (CHAPLE), a newly identified orphan disease” (The United States of America, as represented by the …, priority 2016, dated 2024).

Assay: Clinical course of CHAPLE patients under replacement therapy
Format: in vivo, human
Conditions: albumin infusion, patients require ongoing treatment
Experimental: Study Participants. Three initial patients, their unaffected parents, and then seven additional patients presenting with a similar clinical presentation were evaluated (FIGS. 1A and 3). The patients were followed in Marmara University, Istanbul, Turkey; Cerraphasa University, Istanbul, Turkey; Baskent University, Ankara, Turkey; Gazi University, Ankara, Turkey, and Sami Ulus Hospital, Ankara, Turkey. All of the patients were enrolled in a clinical protocol which had been approved by the institutional review boards of the respective institutions and NIH. All study participants or their parents provided written informed consent.
Patient 1.1, a child born to consanguineous Turkish parents, presented with bloody diarrhea and vomiting, and continued with episodes throughout childhood. They were admitted to hospital with persistent diarrhea, pneumonia, and facial/extremity edema, for which they received antibiotics and albumin replacement therapy. […]
Patient 2.1, a person born to consanguineous Turkish parents, presented with fever, productive coughing and hemoptysis when they were diagnosed with pneumonia. […] When they were […] their serum immunoglobulins levels were determined due to suspected immunodeficiency. […] In order to assess the patient's capacity to produce specific antibodies, we evaluated isohemaglutinin titers and antibody response to pneumococcal vaccine, with normal results. […]

Substance: albumin: albumin infusion / replacement therapy given to patients
- symptoms of CHAPLE patients: only a transient palliation
